Experimental findings from PMC4769701, “Discovery and characterization of a high-affinity and high-specificity peptide ligand LXY30 for in vivo targeting of α3 integrin-expressing human tumors” (EJNMMI Research, 2016) are described below.

The chains behind the UniProt entries cited, without tags or fusion partners. Residues count along the entry.
UniProt P26006, 33-872 limits assumed: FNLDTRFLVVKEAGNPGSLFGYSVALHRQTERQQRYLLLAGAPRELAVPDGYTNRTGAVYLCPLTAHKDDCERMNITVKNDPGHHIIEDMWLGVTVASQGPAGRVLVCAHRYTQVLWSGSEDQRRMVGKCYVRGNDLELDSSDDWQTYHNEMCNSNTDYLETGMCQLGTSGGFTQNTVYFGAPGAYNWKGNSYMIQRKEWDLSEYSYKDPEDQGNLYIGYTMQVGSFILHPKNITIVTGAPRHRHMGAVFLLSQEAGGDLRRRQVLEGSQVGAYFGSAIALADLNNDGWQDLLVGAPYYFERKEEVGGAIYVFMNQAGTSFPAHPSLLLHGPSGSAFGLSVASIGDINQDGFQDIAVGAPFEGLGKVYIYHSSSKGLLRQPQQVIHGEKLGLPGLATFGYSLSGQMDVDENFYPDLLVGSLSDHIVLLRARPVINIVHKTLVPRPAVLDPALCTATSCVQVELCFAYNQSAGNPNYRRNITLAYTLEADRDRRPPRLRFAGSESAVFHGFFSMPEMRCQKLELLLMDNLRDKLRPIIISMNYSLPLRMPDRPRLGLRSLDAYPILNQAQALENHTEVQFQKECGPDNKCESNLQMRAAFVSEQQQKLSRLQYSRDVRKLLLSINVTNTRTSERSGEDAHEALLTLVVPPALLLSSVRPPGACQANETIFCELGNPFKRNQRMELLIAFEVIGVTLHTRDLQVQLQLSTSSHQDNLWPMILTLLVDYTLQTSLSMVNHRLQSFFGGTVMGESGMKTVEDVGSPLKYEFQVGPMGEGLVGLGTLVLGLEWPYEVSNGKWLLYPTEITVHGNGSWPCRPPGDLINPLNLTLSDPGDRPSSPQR
UniProt P26006, 873-1051 partner limits assumed: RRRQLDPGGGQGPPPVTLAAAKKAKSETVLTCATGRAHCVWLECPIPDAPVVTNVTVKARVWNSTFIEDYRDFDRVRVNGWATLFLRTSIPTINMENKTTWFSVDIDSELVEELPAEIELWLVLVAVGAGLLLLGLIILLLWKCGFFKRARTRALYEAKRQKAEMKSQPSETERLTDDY

This test has as its target T1, α3β1 integrin-expressing U-87MG glioblastoma cells (Homo sapiens, UniProt P26006).
T1 construct: we incubated U-87MG cells which express α3β1 integrin; endogenous in cells; host or cells: U-87MG human glioblastoma cells
Nature of the test: biochemical. The following applies: series of concentrations competing with 0.5 μM LXY1-biotin binding to U-87MG cells. The method, then:
Confluent tumor cells (80-90 %) were dissociated with 0.05 % trypsin-EDTA and neutralized with culture medium. To determine the expression of α3 and β1 integrins, 1 μg of anti-α3 or anti-β1 antibody was mixed with 1 million cells for 30 min, followed by anti-mouse IgG-PE incubation and flow cytometry (Coulter XL-MCL). […] Then each sample was washed three times with 1 mL PBS containing 1 % FBS. Samples thereafter were incubated with a 1:500 dilution of streptavidin-PE (1 mg/mL) for 30 min on ice followed by a single wash with 1 mL of PBS containing 1 % FBS. Finally, the samples in PBS were analyzed by flow cytometry. […] The mixture was then incubated with cancer cells followed by streptavidin-PE. Samples were analyzed by flow cytometry, and mean fluorescence intensity (MFI) was decided for each individual sample. […] For blocking experiments, the samples were incubated with non-biotinylated LXY30, anti-α3, or anti-β1 antibody for 30 min prior to incubation with 20 nM biotinylated LXY30. […] [table]

A word on the IC50: it is the concentration that inhibits the measured activity by half. Read a low IC50 as greater potency in that assay. For `CC(C)C[C@@H]1NC(=O)CNC(=O)[C@@H](CC(=O)O)NC(=O)[C@H](N)CSSC[C@H](C(N)=O)NC(=O)[C@H](CC(N)=O)NC(=O)[C@@H]2C[C@@H](O)CN2C(=O)CNC1=O` [LXY1, cdGLG-Hyp-Nc], the IC50 worked out at 3.5 ± 0.4 µM.
